In patent US20160024487:

Key:
[1] = tested on: Lys(Dnp)-ATNATTSPRIVGG-Lys(Abz)
[2] = tested on: Lys(Dnp)-ATNATLRPRIVGG-Lys(Abz)
[3] = tested on: Lys(Dnp)-ATNATLLPRIVGG-Lys(Abz)
[4] = tested on: Lys(Dnp)-ATNATIQPRIVGG-Lys(Abz)
[5] = tested on: Lys(Dnp)-ATNATEKPRIVGG-Lys(Abz)
[6] = tested on: Lys(Dnp)-ATNATIFPRIVGG-Lys(Abz)
[7] = tested on: Lys(Dnp)-ATNATYYPRIVGG-Lys(Abz)
[8] = tested on: Lys(Dnp)-ATNATVFPRIVGG-Lys(Abz)
[9] = tested on: Lys(Dnp)-ATNATX4X3PRIVGG-Lys(Abz), X4 = H, X3 = W
[10] = tested on: Lys(Dnp)-ATNATTVPRIVGG-Lys(Abz)
[11] = tested on: Lys(Dnp)-TNATLDPRIVGG-Lys(Abz)
[12] = tested on: Lys(Dnp)-ATNATMHPRIVGG-Lys(Abz)
[13] = tested on: Lys(Dnp)-ATNATWDPRIVGG-Lys(Abz)
[14] = tested on: Lys(Dnp)-ATNATTMPRIVGG-Lys(Abz)
[15] = tested on: Lys(Dnp)-NLAKPTLPIKIVGG-Lys(Abz)
[16] = tested on: Lys(Dnp)-ATNATYQPRIVGG-Lys(Abz)
[17] = tested on: Lys(Dnp)-ATNATX4X3PRIVGG-Lys(Abz), X4 = S, X3 = W
[18] = tested on: Lys(Dnp)-ATNATSPPRIVGG-Lys(Abz)
[19] = tested on: Lys(Dnp)-ATNATLSPRIVGG-Lys(Abz)
[20] = tested on: Lys(Dnp)-ATNATFAPRIVGG-Lys(Abz)
[21] = tested on: Lys(Dnp)-ATNATFLPRIVGG-Lys(Abz)
[22] = tested on: Lys(Dnp)-ATNATVYPRIVGG-Lys(Abz)
[23] = tested on: Lys(Dnp)-ATLDPRIVGG-Lys(Abz)
[24] = tested on: Lys(Dnp)-ATNATIVPRIVGG-Lys(Abz)
[25] = tested on: Lys(Dnp)-ATNATX4X3PRIVGG-Lys(Abz), X4 = Y, X3 = V
[26] = tested on: Lys(Dnp)-ASTAVVIAGRIVGG-Lys(Abz)
[27] = tested on: Lys(Dnp)-ATNATTWPRIVGG-Lys(Abz)
[28] = tested on: Lys(Dnp)-ATNATX4X3PRIVGG-Lys(Abz), X4 = S, X3 = G
[29] = tested on: Lys(Dnp)-ATNATVHPRIVGG-Lys(Abz)
[30] = tested on: Lys(Dnp)-ATNATQWPRIVGG-Lys(Abz)
[31] = tested on: Lys(Dnp)-ATNATX4X3PRIVGG-Lys(Abz), X4 = F, X3 = D
[32] = tested on: Lys(Dnp)-ATNATX4X3PRIVGG-Lys(Abz), X4 = Y, X3 = E
[33] = tested on: Lys(Dnp)-ATNATIHPRIVGG-Lys(Abz)
[34] = tested on: Lys(Dnp)-ATNATSIPRIVGG-Lys(Abz)
[35] = tested on: Lys(Dnp)-DQVTVAMTPRIVGG-Lys(Abz)
[36] = tested on: Lys(Dnp)-ATNATAHPRIVGG-Lys(Abz)
[37] = tested on: Lys(Dnp)-ATNATX4X3PRIVGG-Lys(Abz), X4 = N, X3 = H
[38] = tested on: Lys(Dnp)-ATNATYVPRIVGG-Lys(Abz)
[39] = tested on: Lys(Dnp)-ATNATVEPRIVGG-Lys(Abz)
[40] = tested on: Lys(Dnp)-ATNATQHPRIVGG-Lys(Abz)

## Human plasma purified α-thrombin
[1]
  kcat/KM: 890 M⁻¹ s⁻¹
[2]
  FIIa kcat/KM: 45000 M⁻¹ s⁻¹
  Functional Selectivity (Specificity*FIIa kcat/KM): 3.3e+06
  kcat/KM: 45000 M⁻¹ s⁻¹
[3]
  FIIa kcat/KM: 16000 M⁻¹ s⁻¹
  Specificity Ratio (FIIa/FXa): 27
  kcat/KM: 16000 M⁻¹ s⁻¹
[4]
  FIIa kcat/KM: 44000 M⁻¹ s⁻¹
  Functional Selectivity (Specificity*FIIa kcat/KM): 1.2e+06
  kcat/KM: 44000 M⁻¹ s⁻¹
[5]
  kcat/KM: 650 M⁻¹ s⁻¹
[6]
  FIIa kcat/KM: 13000 M⁻¹ s⁻¹
  Functional Selectivity (Specificity*FIIa kcat/KM): 1.3e+06
  kcat/KM: 13000 M⁻¹ s⁻¹
[7]
  FIIa kcat/KM: 3800 M⁻¹ s⁻¹
  Specificity Ratio (FIIa/FXa): 79
  kcat/KM: 3800 M⁻¹ s⁻¹
[8]
  Functional Selectivity (Specificity*FIIa kcat/KM): 1.3e+06
[9]
  FIIa kcat/KM: 2800 M⁻¹ s⁻¹
  Specificity Ratio (FIIa/FXa): 9
[10]
  kcat/KM: 980 M⁻¹ s⁻¹
[11]
  FIIa kcat/KM: 3600 M⁻¹ s⁻¹
  Functional Selectivity (Specificity*FIIa kcat/KM): 15000
  Specificity Ratio (FIIa/FXa): 4
  kcat/KM: 3600 M⁻¹ s⁻¹
[12]
  FIIa kcat/KM: 18000 M⁻¹ s⁻¹
  Functional Selectivity (Specificity*FIIa kcat/KM): 1.1e+06
  kcat/KM: 18000 M⁻¹ s⁻¹
[13]
  FIIa kcat/KM: 1200 M⁻¹ s⁻¹
  Specificity Ratio (FIIa/FXa): 71
  kcat/KM: 1200 M⁻¹ s⁻¹
[14]
  FIIa kcat/KM: 1200 M⁻¹ s⁻¹
  Specificity Ratio (FIIa/FXa): 99
  kcat/KM: 1200 M⁻¹ s⁻¹
[15]
  FIIa kcat/KM: 16 M⁻¹ s⁻¹
  Functional Selectivity (Specificity*FIIa kcat/KM): 88
  Specificity Ratio (FIIa/FXa): 5
  kcat/KM: 16 M⁻¹ s⁻¹
[16]
  FIIa kcat/KM: 8600 M⁻¹ s⁻¹
  Functional Selectivity (Specificity*FIIa kcat/KM): 1.2e+06
  kcat/KM: 8600 M⁻¹ s⁻¹
[17]
  FIIa kcat/KM: 1500 M⁻¹ s⁻¹
  Specificity Ratio (FIIa/FXa): 36
[18]
  kcat/KM: 450 M⁻¹ s⁻¹
[19]
  FIIa kcat/KM: 21000 M⁻¹ s⁻¹
  Functional Selectivity (Specificity*FIIa kcat/KM): 630000
  kcat/KM: 21000 M⁻¹ s⁻¹
[20]
  FIIa kcat/KM: 8900 M⁻¹ s⁻¹
  Specificity Ratio (FIIa/FXa): 68
  kcat/KM: 8900 M⁻¹ s⁻¹
[21]
  FIIa kcat/KM: 9500 M⁻¹ s⁻¹
  Specificity Ratio (FIIa/FXa): 18
  kcat/KM: 9500 M⁻¹ s⁻¹
[22]
  FIIa kcat/KM: 11000 M⁻¹ s⁻¹
  Functional Selectivity (Specificity*FIIa kcat/KM): 2e+06
  kcat/KM: 11000 M⁻¹ s⁻¹
[23]
  FIIa kcat/KM: 3300 M⁻¹ s⁻¹
  Functional Selectivity (Specificity*FIIa kcat/KM): 12000
  Specificity Ratio (FIIa/FXa): 4
  kcat/KM: 3300 M⁻¹ s⁻¹
[24]
  FIIa kcat/KM: 24000 M⁻¹ s⁻¹
  Functional Selectivity (Specificity*FIIa kcat/KM): 1.6e+06
  kcat/KM: 24000 M⁻¹ s⁻¹
[25]
  FIIa kcat/KM: 1700 M⁻¹ s⁻¹
  Specificity Ratio (FIIa/FXa): 35
[26]
  FIIa kcat/KM: 0.31 M⁻¹ s⁻¹
  Functional Selectivity (Specificity*FIIa kcat/KM): 0.045
  Specificity Ratio (FIIa/FXa): 0
  kcat/KM: 0.31 M⁻¹ s⁻¹
[27]
  FIIa kcat/KM: 2700 M⁻¹ s⁻¹
  Specificity Ratio (FIIa/FXa): 132
  kcat/KM: 2700 M⁻¹ s⁻¹
[28]
  FIIa kcat/KM: 770 M⁻¹ s⁻¹
  Specificity Ratio (FIIa/FXa): 32
[29]
  FIIa kcat/KM: 13000 M⁻¹ s⁻¹
  Functional Selectivity (Specificity*FIIa kcat/KM): 2.5e+06
  kcat/KM: 13000 M⁻¹ s⁻¹
[30]
  kcat/KM: 7800 M⁻¹ s⁻¹
[31]
  FIIa kcat/KM: 1300 M⁻¹ s⁻¹
  Specificity Ratio (FIIa/FXa): 21
[32]
  FIIa kcat/KM: 1700 M⁻¹ s⁻¹
  Specificity Ratio (FIIa/FXa): 31
[33]
  FIIa kcat/KM: 26000 M⁻¹ s⁻¹
  Functional Selectivity (Specificity*FIIa kcat/KM): 830000
  kcat/KM: 26000 M⁻¹ s⁻¹
[34]
  kcat/KM: 1100 M⁻¹ s⁻¹
[35]
  FIIa kcat/KM: 30000 M⁻¹ s⁻¹
  Functional Selectivity (Specificity*FIIa kcat/KM): 1.9e+06
  Specificity Ratio (FIIa/FXa): 64
[36]
  FIIa kcat/KM: 7400 M⁻¹ s⁻¹
  Specificity Ratio (FIIa/FXa): 52
  kcat/KM: 7400 M⁻¹ s⁻¹
[37]
  FIIa kcat/KM: 660 M⁻¹ s⁻¹
  Specificity Ratio (FIIa/FXa): 43
[38]
  kcat/KM: 1700 M⁻¹ s⁻¹
[39]
  FIIa kcat/KM: 5400 M⁻¹ s⁻¹
  Specificity Ratio (FIIa/FXa): 50
  kcat/KM: 5400 M⁻¹ s⁻¹
[40]
  FIIa kcat/KM: 7300 M⁻¹ s⁻¹
  Specificity Ratio (FIIa/FXa): 13
  kcat/KM: 7300 M⁻¹ s⁻¹
